From patent publication US11667602B2, “Compounds and their use” (AstraZeneca AB, priority 2020, dated 2023)

Biological target: T1, human RXFP1 (Homo sapiens, UniProt Q9HBX9)
T1 sequence (Q9HBX9 1-757): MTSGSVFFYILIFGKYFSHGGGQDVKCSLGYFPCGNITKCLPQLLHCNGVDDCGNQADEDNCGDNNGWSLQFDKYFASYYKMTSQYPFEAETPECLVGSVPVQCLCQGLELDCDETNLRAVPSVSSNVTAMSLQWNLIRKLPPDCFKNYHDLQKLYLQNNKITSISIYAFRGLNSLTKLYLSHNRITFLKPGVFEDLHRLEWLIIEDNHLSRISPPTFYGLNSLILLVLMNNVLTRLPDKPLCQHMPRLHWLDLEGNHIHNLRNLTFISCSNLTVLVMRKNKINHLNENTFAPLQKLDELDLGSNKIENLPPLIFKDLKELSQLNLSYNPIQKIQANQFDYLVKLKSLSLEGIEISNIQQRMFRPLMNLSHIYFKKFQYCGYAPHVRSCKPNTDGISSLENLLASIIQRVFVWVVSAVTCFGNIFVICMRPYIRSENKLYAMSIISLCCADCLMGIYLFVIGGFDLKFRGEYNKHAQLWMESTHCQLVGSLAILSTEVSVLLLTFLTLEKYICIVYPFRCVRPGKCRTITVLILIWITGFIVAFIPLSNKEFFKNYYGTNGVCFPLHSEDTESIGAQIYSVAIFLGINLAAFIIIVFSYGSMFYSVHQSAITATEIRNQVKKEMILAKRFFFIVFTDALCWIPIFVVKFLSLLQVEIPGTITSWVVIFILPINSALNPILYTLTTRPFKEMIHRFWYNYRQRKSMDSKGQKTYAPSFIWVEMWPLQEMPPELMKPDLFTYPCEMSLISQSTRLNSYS
Assay: RXFP1 Hu cAMP (Test A)
Assay type: cell-based
Parameters: expressed in transfected cells; host or cells: Jump-In T-REx CHO-K1 cells (ThermoFisher), induced with 10 ng/ml doxycycline for 24 h

SMILES | Test A Sinf [%]
COc1cc(F)c(O[C@H]2CC[C@@](C)(C(=O)O)CC2)cc1C(=O)N[C@@H]1[C@H]2CC[C@H](C2)[C@@H]1C(=O)NCC(C)C [Example 34, (1S,4s)-4-(2-Fluoro-5-(((1S,2R,3S,4R)-3-(isobutylcarbamoyl)bicyclo[2.2.1]heptan-2-yl)carbamoyl)-4-methoxyphenoxy)-1-methylcyclohexane-1-carboxylic acid] | 103
COc1cc(F)c(O[C@H]2CC[C@@](C)(C(=O)O)CC2)cc1C(=O)N[C@@H]1[C@H]2CC[C@H](C2)[C@@H]1C(=O)NCC(C)(C)C [Example 35, (1S,4s)-4-(2-Fluoro-4-methoxy-5-(((1S,2R,3S,4R)-3-(neopentylcarbamoyl)bicyclo[2.2.1]heptan-2-yl)carbamoyl)phenoxy)-1-methylcyclohexane-1-carboxylic acid] | 101
COc1c(F)cc(O[C@H]2CC[C@@](C)(C(=O)O)CC2)cc1C(=O)N[C@@H]1[C@H]2CC[C@H](C2)[C@@H]1C(=O)NCC1(C)CCC1 [Example 374] | 102
COc1ccc(O[C@H]2CC[C@@](C)(C(=O)O)CC2)cc1C(=O)N[C@@H]1[C@H]2CC[C@H](C2)[C@@H]1C(=O)NCC1(C)CCC1 [Example 381] | 114
COc1c(C#N)cc(O[C@H]2CC[C@@](C)(C(=O)O)CC2)cc1C(=O)N[C@@H]1[C@H]2CC[C@H](C2)[C@@H]1C(=O)NCC1(C)CCC1 [Example 404] | 109
